In US6110956A, “N-aryloxyethylamine derivatives for the treatment of depression” (American Home Products Corp., priority 1999, dated 2000):
Where two headings read alike, the source gives them in different places.

By UniProt entry, the sequences of proteins in these tests, tags left out.
UniProt P31652, whole entry: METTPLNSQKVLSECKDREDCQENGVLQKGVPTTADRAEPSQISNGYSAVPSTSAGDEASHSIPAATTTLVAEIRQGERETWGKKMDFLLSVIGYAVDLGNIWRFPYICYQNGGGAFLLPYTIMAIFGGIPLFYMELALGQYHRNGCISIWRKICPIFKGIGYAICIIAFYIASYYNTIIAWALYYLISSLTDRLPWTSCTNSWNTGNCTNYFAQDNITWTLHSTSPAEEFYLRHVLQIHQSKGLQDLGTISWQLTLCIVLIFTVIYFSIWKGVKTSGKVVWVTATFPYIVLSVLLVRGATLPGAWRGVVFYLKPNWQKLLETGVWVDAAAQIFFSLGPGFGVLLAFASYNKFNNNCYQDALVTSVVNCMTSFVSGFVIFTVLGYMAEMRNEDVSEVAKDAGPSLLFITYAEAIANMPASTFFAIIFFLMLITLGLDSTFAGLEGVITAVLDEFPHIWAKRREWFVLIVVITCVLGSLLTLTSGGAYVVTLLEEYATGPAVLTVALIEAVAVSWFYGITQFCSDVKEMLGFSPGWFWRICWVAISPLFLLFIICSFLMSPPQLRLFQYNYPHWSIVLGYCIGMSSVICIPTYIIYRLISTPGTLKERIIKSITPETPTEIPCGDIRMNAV
UniProt P08908, whole entry: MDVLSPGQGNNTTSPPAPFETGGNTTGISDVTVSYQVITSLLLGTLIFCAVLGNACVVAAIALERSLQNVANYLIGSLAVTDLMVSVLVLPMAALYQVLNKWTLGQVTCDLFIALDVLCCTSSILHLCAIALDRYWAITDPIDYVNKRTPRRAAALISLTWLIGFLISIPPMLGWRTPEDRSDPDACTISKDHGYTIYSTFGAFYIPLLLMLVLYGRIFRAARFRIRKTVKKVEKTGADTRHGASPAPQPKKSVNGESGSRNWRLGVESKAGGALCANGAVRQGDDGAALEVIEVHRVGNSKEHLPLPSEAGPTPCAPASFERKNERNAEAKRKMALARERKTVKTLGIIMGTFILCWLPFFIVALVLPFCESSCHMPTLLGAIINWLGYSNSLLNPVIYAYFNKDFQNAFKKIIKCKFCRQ

Tests used:
serotonin transporter = biological target: T1, serotonin transporter (Rattus norvegicus, UniProt P31652); assay: serotonin transporter (ST) affinity, 3H-paroxetine binding in frontal cortical membranes; design: species or system male Sprague-Dawley rats
T1 construct: frontal cortical membranes prepared from male Sprague-Dawley rats; from tissue; host or cells: frontal cortical membranes of male Sprague-Dawley rats
Description: Briefly, frontal cortical membranes prepared from male Sprague-Dawley rats were incubated with ^3 H-paroxetine (0.1 nM) for 60 min at 25° C. All tubes also contained either vehicle, test compound (one to eight concentrations), or a saturating concentration of fluoxetine (10 μM) to define […]. All reactions are terminated by the addition of ice cold Tris buffer followed by rapid filtration using a Tom Tech filtration device to separate bound from free ^3 H-paroxetine.

human 5-HT1A receptor = biological target: T2, human 5-HT1A receptor (Homo sapiens, UniProt P08908); assay: cAMP formation in forskolin-treated 5-HT1A.CHO cells; assay type: cell-based; conditions: forskolin 1 uM, 10 min, 37° C.
T2 construct: expressed in transfected cells
Description: The PCR cloning of the human 5-HT1A receptor subtype from a human genomic library has been described previously Chanda et al., Mol. Pharmacol., 43:516 (1993). A stable Chinese hamster ovary cell line expressing the human 5-HT1A receptor subtype (5-HT1A.CHO cells) was employed throughout this study. Cells were maintained in DMEM supplemented with 10% foetal calf serum, non-essential amino acids and penicillin/streptomycin.
The following assays were performed by incubating the cells with DMEM containing 25 mM HEPES, 5 mM theophylline and 10 μM pargyline for a period of 20 minutes at 37° C. Functional activity was assessed by treating the cells with forskolin (1 uM final concentration) followed immediately by test compound (6 concentrations) for an additional 10 min at 37° C. In separate experiments, 6 concentrations of antagonist were preincubated for 20 min prior to the addition of 10 nM 8-OH-DPAT and forskolin. The reaction was terminated by removal of the media and addition of 0.5 ml ice cold assay buffer. Plates were stored at -20° C. prior to assessment of cAMP formation by a cAMP SPA assay (Amersham).

COc1ccccc1OCCN[C@H]1CC[C@@H](c2c[nH]c3ccc(F)cc32)CC1 [Example 1a, [(cis)-4-(5-Fluoro-1H-indol-3-yl)-cyclohexyl]-[2-(2-methoxy-phenoxy)-ethyl]-amine]
Ki (serotonin transporter; 3H-paroxetine 0.1 nM, 60 min, 25° C., rat frontal cortical membranes, read-out: ST (Ki)): 6.76 nM

COc1ccccc1OCCN[C@H]1CC[C@H](c2c[nH]c3ccc(F)cc32)CC1 [Example 1b, [(trans)-4-(5-Fluoro-1H-indol-3-yl)-cyclohexyl]-[2-(2-methoxy-phenoxy)-ethyl]-amine]
Emax (human 5-HT1A receptor): 92%

OC1(CNCCOc2cccc3[nH]ccc23)CCC(c2c[nH]c3ccc(F)cc23)CC1 (stereo not drawn) [Example 13, (1,4)-4-(5-Fluoro-1H-indol-3-yl)-1-{[2-(1H-indol-4-yloxy)-ethylamino]-methyl}-cyclohexanol]
Ki (serotonin transporter): 21 nM
